Screens (PubChem BioAssay)
Most compounds without a hit are left out; they make up all but 4.2% or so of the library.
MC4R antagonist: human MC4R antagonism in cAMP assay | P32245 | MC4R-expressing cells, MTII-stimulated cAMP, LANCE TR-FRET | inhibition, % at 6.5 µM | 360,000 compounds, 0.48% hits;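 active = inhibition above its plate's cutoff, the mean of tested wells on that plate plus 3 SD, cut at about 29% in these data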;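 also: 0% = Melanotan II alone and 100% = Melanotan II plus saturating MCL0020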
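Material – human MC4R-expressing U2OS cells · Repeats – no replicates · Detection – TR-FRET with Eu-cAMP and labeled anti-cAMP, 671 nm · Times – compound 30 min, challenge 1 h, detection 1 h · Compound – single nominal compound dose of 6.5 µM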
UUG fidelity: modulators of start codon recognition fidelity in yeast; activity score, % at 18.7 µM; actives 0.13% (n = 350,000); S. cerevisiae UUG-firefly luciferase reporter, luminescence/redox ratio;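 active = replicate mean at a twofold rise or more, about +100% in these data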;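 note: firefly luciferase made from a UUG start codon reports start codon fidelity; reporter light over untreated wells divided by growth signal over untreated wells; some hits fall short of that in this replicate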
NALP1 yeast inh: blocks the NALP1 inflammasome reconstituted in yeast. S. cerevisiae NALP1/ASC/caspase-1 growth, X-gal OD620, 72 h. inhibition, % at 10 µM. 280,000 compounds, 0.61% hits. AID 2071; in the data active = inhibition mostly above about 24%, no sharp cut-off; inactive = mostly below about 32%
MC4R ag barr: activates human MC4R beta-arrestin recruitment; activation, % at 8.9 µM; 360,000 compounds, 0.98% hits; AID 540308; U2OS MC4R beta-arrestin complementation, luminescence; percent of melanotan II response, DMSO zero;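 active = activation above a per-plate cutoff, the mean activation of sample wells on that plate plus 3 SD, cut at about 8% in these data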
HDAC3 inh: blocks human histone deacetylase 3; 320,000 compounds, 0.15% hits; inhibition, % at 8.3 µM; O15379; recombinant HDAC3, fluorogenic peptide/trypsin coupled, fluorescence; in the data active = inhibition above about 26%, passing the limit was not always enough; inconclusive = no clear call, values can overlap the other calls
ALR inh: inhibitors of human ALR sulfhydryl oxidase, primary screen, biochemical, H2O2 detection, HRP-luminol luminescence, single point; FAD-linked sulfhydryl oxidase ALR (Homo sapiens), P55789; purified ALR, DTT oxidation; inhibition, % (test concentration not listed); 290,000 tested, 3.8% active; AID 485317, 2010;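 active = mean and each replicate at 75% or more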;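 note: stock transfer was 7.5 nL into about 7.5 µL; 0% = neutral wells and 100% = wells with inactivated enzyme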
MC4R barr conf: human MC4R beta-arrestin agonism confirmation; 2,400 compounds, 31% hits; activation, % at 8.9 µM; shares compounds with MC4R ag barr; U2OS MC4R beta-arrestin recruitment, luminescence; scaled DMSO 0%, Melanotan II 100%;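 active = mean activation across replicates above the hit cutoff set in the earlier primary screen, cut at about 8% in these data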
MOR-DOR barr ag: OPRM1-OPRD1 heterodimer agonism counter-screen. 2,400 compounds, 5.8% hits. activation, % at 9.2 µM. shares compounds with MC4R ag barr. U2OS PathHunter beta-arrestin, beta-gal luminescence; percent of deltorphin B response, DMSO zero;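 active = mean activation across replicates exceeds the hit threshold derived in the earlier primary screen, cut at about 18% in these data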;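 also: 100% = deltorphin B at 0.9 µM final and 0% = DMSO alone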
Starred values were filed as active, the others as inactive; ? = inconclusive; nt = no result.

Field names – A = MC4R antagonist; B = UUG fidelity; C = NALP1 yeast inh; D = MC4R ag barr; E = HDAC3 inh; F = ALR inh; G = MC4R barr conf; H = MOR-DOR barr ag
#1 CN(C)CCCN(C(=O)c1cc2cc([N+](=O)[O-])ccc2s1)c1nc2cc3c(cc2s1)OCCO3
  A: -5.1 | B: -10.9 | C: nt | D: 35.3* | E: 17.1 | F: -4.2 | G: 24.8* | H: 17.5
#2 CN(C)CCCN(C(=O)c1ccc([N+](=O)[O-])s1)c1nc2cc3c(cc2s1)OCCO3
  A: 2.7 | B: -12.8 | C: 21.9 | D: -4.2 | E: 3.7 | F: -22.6 | G: nt | H: nt
#3 CCn1c(SCC(=O)Nc2nccs2)nnc1-c1cc2cccc(OC)c2o1
  A: 5.4 | B: nt | C: 23.2 | D: -1.7 | E: nt | F: nt | G: nt | H: nt
#4 COc1cccc2cc(-c3nnc(SCC(=O)Nc4cc(C(F)(F)F)ccc4Cl)n3N)oc12
  A: -0.3 | B: -6.8 | C: 8.6 | D: 21.1* | E: -0.7 | F: -2.4 | G: 0.9 | H: 5.7
#5 COCC(=O)N(C)C[C@H]1Oc2cc(C3=CCCCC3)ccc2S(=O)(=O)N([C@@H](C)CO)C[C@@H]1C
  A: nt | B: 17.8 | C: nt | D: nt | E: nt | F: nt | G: nt | H: nt
#6 Cc1cc(Cl)cc2sc(NC(=O)c3ccco3)nc12
  A: 7.9 | B: -16.6 | C: 12.4 | D: 10.5* | E: 0.2 | F: -11.0 | G: -0.5 | H: 3.0
#7 Cc1cc(C)c2nc(NC(=O)c3ccco3)sc2c1
  A: 0.7 | B: -16.8 | C: 16.3 | D: -1.5 | E: -4.8 | F: -2.2 | G: nt | H: nt
#8 O=C(NCc1ccc2c(c1)OCO2)c1cc(-c2cc(Cl)ccc2O)n[nH]1
  A: 3.2 | B: -16.5 | C: 3.6 | D: 11.0* | E: ? | F: -2.1 | G: 4.8 | H: 3.6
#9 CCOc1ccc(Cn2c3ccc(OC)cc3c3nc4ccccc4nc32)cc1OC
  A: 7.0 | B: nt | C: 12.5 | D: 27.7* | E: -3.3 | F: 0.0 | G: 25.6* | H: 4.3
#10 COc1ccc2c(c1)c1nc3ccccc3nc1n2Cc1ccc(OC)c(OC)c1
  A: 7.3 | B: nt | C: 29.3 | D: 11.3* | E: -4.2 | F: 5.2 | G: 0.6 | H: 2.9
#11 CCOC(=O)Cn1c2ccc(OC)cc2c2nc3ccccc3nc21
  A: -3.7 | B: -20.4 | C: 3.9 | D: -2.2 | E: -1.7 | F: -2.8 | G: nt | H: nt
#12 CCOc1ccc(CC2S/C(=N/N=C/c3ccco3)NC2=O)cc1 (stereo not drawn)
  A: 9.8 | B: nt | C: -4.4 | D: 13.6* | E: 7.7 | F: -8.9 | G: 4.7 | H: 4.8
#13 COc1ccc(NC(=O)N(C)C[C@@H]2Oc3c(NC(=O)Nc4ccc(F)cc4)cccc3C(=O)N([C@H](C)CO)C[C@H]2C)cc1
  A: nt | B: 16.8 | C: nt | D: nt | E: nt | F: nt | G: nt | H: nt
#14 COCC(=O)Nc1ccc2c(c1)C(=O)N(C)C[C@@H](OC)[C@@H](C)CN(C(=O)NC(C)C)[C@H](C)CO2
  A: nt | B: -9.6 | C: nt | D: nt | E: nt | F: nt | G: nt | H: nt
#15 CCOC(=O)N=Nc1c(O)n(C)c2ccccc12
  A: 4.0 | B: -3.7 | C: 16.2 | D: -1.6 | E: 4.3 | F: nt | G: nt | H: nt
#16 Cc1ccccc1OCC(=O)N=Nc1c(O)n(C)c2ccccc12
  A: 4.5 | B: nt | C: 0.5 | D: 18.0* | E: 1.9 | F: -4.4 | G: 5.0 | H: 3.5
#17 COc1ccc(S(=O)(=O)N(C)C[C@H]2Oc3ccc(NS(=O)(=O)c4cn(C)cn4)cc3CC(=O)N([C@H](C)CO)C[C@@H]2C)cc1
  A: nt | B: -9.3 | C: nt | D: nt | E: nt | F: nt | G: nt | H: nt
#18 CC(CC(=O)Nc1ccc2c(c1)c(=O)n(C)n2-c1ccc2ccccc2c1)C(F)(F)F (stereo not drawn)
  A: -22.4 | B: -2.1 | C: nt | D: 9.7* | E: nt | F: nt | G: -2.1 | H: 5.4
#19 CCOc1ccc(-c2cc(NC(=O)Cn3ncc4c3-c3ccccc3OC4)on2)cc1OCC
  A: 8.3 | B: -14.0 | C: 43.8* | D: 16.4* | E: 0.1 | F: 1.6 | G: 2.8 | H: 8.4
#20 CCOc1ccc(CC(=O)Nc2c(C(=O)Nc3ccccc3)oc3ccccc23)cc1OCC
  A: 2.3 | B: -6.2 | C: 9.9 | D: 15.0* | E: -2.0 | F: -7.3 | G: 10.9* | H: 0.6
#21 CCS(=O)(=O)N[C@H]1CC[C@H](CC(=O)NCc2ccc(F)cc2)O[C@H]1CO
  A: nt | B: -22.1 | C: nt | D: nt | E: nt | F: nt | G: nt | H: nt
#22 CCOC(=O)c1cc(-c2ccccc2)sc1NC(=O)CSc1nnc(N)s1
  A: 23.0 | B: nt | C: -15.3 | D: 10.5* | E: 3.5 | F: 2.2 | G: 3.5 | H: 7.4
#23 CCOC(=O)c1cc(-c2ccccc2)sc1NC(=O)COC(=O)c1cccc(S(N)(=O)=O)c1
  A: -13.5 | B: nt | C: 13.6 | D: 16.5* | E: -1.1 | F: -1.9 | G: 18.6* | H: 21.9*
#24 CCC(=O)N1[C@H](CN(C)C(=O)c2cccc(F)c2)[C@@H](c2ccccc2)[C@@H]1CO
  A: nt | B: -0.8 | C: nt | D: nt | E: nt | F: nt | G: nt | H: nt
#25 Cn1nc(C(=O)Nc2cccc(Cl)c2)cc1C(=O)Nc1cccc(Cl)c1
  A: 25.1 | B: 5.9 | C: 9.7 | D: 14.3* | E: -27.8 | F: -11.4 | G: 2.3 | H: 6.9

Fetched by compound from above (2):
Field names – A = MC4R antagonist; B = UUG fidelity; C = NALP1 yeast inh; D = MC4R ag barr; E = HDAC3 inh; F = ALR inh; G = MC4R barr conf; H = MOR-DOR barr ag
#23 CCOC(=O)c1cc(-c2ccccc2)sc1NC(=O)COC(=O)c1cccc(S(N)(=O)=O)c1
  A: -13.5 | B: nt | C: 13.6 | D: 16.5* | E: -1.1 | F: -1.9 | G: 18.6* | H: 21.9*
#21 CCS(=O)(=O)N[C@H]1CC[C@H](CC(=O)NCc2ccc(F)cc2)O[C@H]1CO
  A: nt | B: -22.1 | C: nt | D: nt | E: nt | F: nt | G: nt | H: nt
